System: sephadex bead stimulated LTE4 production in whole human blood (eosinophil activation)
Assay type: cell-based
Settings: read-out: IC50 in ex-vivo LTE4 assay

Structure (SMILES): COc1ccc(Cc2ccc(C(=O)N(C)C)nc2)c(F)c1-c1cccc(Cl)c1 [P-382, 5-(3′-Chloro-2-fluoro-6-methoxy-biphenyl-3-ylmethyl)-pyridine-2-carboxylic acid dimethylamide]
- IC50: < 1000 nM
